Results as given in patent publication US20260308224A1, “METHODS AND COMPOSITIONS FOR DISPLAYING PEPTIDE LIBRARIES” (priority 2023, published 2026).

The chains behind the UniProt entries cited, without tags or fusion partners. Where a name states a change or a piece, a line headed by the entry shows the natural chain unless it says otherwise.
UniProt P41145: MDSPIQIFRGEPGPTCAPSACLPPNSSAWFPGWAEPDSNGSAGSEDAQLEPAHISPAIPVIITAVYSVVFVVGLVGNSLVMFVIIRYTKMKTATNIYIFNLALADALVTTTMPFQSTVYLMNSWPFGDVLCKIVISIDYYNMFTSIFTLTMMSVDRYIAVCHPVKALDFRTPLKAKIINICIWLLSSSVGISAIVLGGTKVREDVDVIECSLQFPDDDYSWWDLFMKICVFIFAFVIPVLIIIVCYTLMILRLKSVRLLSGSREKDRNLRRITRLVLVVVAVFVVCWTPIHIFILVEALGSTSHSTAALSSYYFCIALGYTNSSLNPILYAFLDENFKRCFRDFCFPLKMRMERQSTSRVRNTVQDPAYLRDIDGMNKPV

Molecular target: HsKOR (Homo sapiens, UniProt P41145)
Assay: cell-based
Conditions: n=3, pTDH3, integrated receptor

## CC[C@H](C)[C@H](NC(=O)[C@H](CCCN=C(N)N)NC(=O)[C@H](CCCN=C(N)N)NC(=O)[C@H](CC(C)C)NC(=O)[C@H](Cc1ccccc1)NC(=O)CNC(=O)CNC(=O)[C@@H](N)Cc1ccc(O)cc1)C(=O)O [dynorphin A 1-8]
EC50, cholesterol (CHOL) strain, 95% CI=2.29 to 5.96 μM
  EC50: 3710 nM
EC50, ergosterol (ERG) strain, 95% CI=0.768 to 2.43 μM
  EC50: 1330 nM
